Assay results published in publication PMC11249626, “Fluorophore-Labeled Pyrrolones Targeting the Intracellular Allosteric Binding Site of the Chemokine Receptor CCR1” (ACS Pharmacology & Translational Science, 2024).

Biological target: T1, CCR1 (Homo sapiens, UniProt P32246)
T1 sequence (P32246 1-355): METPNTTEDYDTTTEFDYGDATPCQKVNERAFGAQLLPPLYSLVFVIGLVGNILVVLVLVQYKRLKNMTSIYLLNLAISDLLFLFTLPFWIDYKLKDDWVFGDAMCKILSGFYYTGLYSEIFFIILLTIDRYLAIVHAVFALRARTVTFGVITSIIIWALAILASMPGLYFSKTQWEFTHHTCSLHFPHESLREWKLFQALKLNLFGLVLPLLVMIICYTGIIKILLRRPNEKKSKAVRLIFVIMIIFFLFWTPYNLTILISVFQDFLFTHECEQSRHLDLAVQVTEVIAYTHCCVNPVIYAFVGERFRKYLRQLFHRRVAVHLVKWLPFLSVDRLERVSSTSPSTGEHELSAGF
Assay: Membrane-based NanoBRET competition assay with 12 (2000 nM) and CCR1_Nluc membranes
Format: binding
Parameters: Promega pNLF1-C (Nluc) #CCR010TN00; host or cells: HEK293T, transient (PEI)

`C[C@@H]1CN(Cc2ccc(F)cc2)CCN1C(=O)COc1ccc(Cl)cc1NC(N)=O` [compound 1, reference compound] was tested, and the “Enhancement of CCR1 binding of 12” value was “approximately 100%”.
